Experimental findings from PubChem BioAssay AID651704 (Broad Institute, 2012) are described below.

Amino acid sequences for entries named in this document (tags omitted).
UniProt P42568, whole entry: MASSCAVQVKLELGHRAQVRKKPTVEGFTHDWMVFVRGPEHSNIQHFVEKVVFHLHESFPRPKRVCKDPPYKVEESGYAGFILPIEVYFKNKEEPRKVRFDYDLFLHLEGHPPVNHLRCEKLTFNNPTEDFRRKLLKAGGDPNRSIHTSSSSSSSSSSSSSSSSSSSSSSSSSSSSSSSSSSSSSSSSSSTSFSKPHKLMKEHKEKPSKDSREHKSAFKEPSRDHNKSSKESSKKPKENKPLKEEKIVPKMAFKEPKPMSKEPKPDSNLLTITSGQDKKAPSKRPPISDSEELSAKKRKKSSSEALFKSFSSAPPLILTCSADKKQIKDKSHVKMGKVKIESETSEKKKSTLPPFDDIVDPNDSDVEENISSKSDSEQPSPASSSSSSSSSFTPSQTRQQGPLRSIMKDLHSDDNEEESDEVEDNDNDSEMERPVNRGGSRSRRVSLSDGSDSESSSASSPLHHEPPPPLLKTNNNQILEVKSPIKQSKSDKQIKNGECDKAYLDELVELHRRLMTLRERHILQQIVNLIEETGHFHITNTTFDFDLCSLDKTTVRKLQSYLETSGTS

The entries are a selection whose mix differs from that of the whole data set. Some tests of the compounds listed are not included; inactive here does not mean inactive elsewhere. Activity calls are given as the source filed them.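 The calls were made as follows: active = every replicate reaching a set inhibition limit, whatever the replicate mean (cut at about 25% in these data); inconclusive = mean inhibition reaches that limit but some replicates miss it; inactive = the rest.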

For the experiment, the target named is Protein AF-9 (Homo sapiens) (UniProt P42568). Description: inhibitors of AF4 peptide binding to AF9, primary screen, biochemical, AlphaScreen, biotin-AF4 peptide, FLAG-AF9, single point (AID 651704).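 Also: 0% = plate neutral control median and 100% = total signal loss.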 Conditions: at 10 µM, stronger effect = higher value. In general terms: Bead proximity is the source of the signal in Alpha formats.
The term inhibition denotes the change of the read-out against control, counted positive when it falls. Consider `C=C(C)C#CC(O)(C(=O)OC1CCN(C)CC1)c1ccccc1` (configuration not stated), for which the inhibition was inactive: -2.92%. With `COc1ccc(Br)c(C(=O)NCC2(N3CCCCC3)CCCCC2)c1`, the inhibition was inactive: -2.84%. As to `CC(C)Oc1ccc(C(=O)NCC2(N(C)C)CCCCC2)cc1`, the inhibition was inactive: -2.38%. On to `O=C(OCCN1CCCC1)C(O)(c1ccccc1)c1ccccc1`, for which the inhibition was inactive: -2.56%. As to `CN(C)C1(CNC(=O)c2ccc(Br)cc2)CCCCC1`, the inhibition is inactive: 0.312%. On to `COc1cc(C(=O)NCC2(N(C)C)CCCCC2)c([N+](=O)[O-])cc1OC`, for which the inhibition is inactive: -1%. Take `COc1cccc(C(=O)NCC2(N3CCCCC3)CCCCC2)c1`: the inhibition was inactive: -1.21%.

As for `COc1ccc(Cl)cc1C(=O)NCC1(N(C)C)CCCCC1`, the inhibition was inactive: -1.1%. For `O=C(NCC1(N2CCCCC2)CCCCC1)c1cccc(Cl)c1`, the inhibition is inactive: -0.899%. `Cc1ccccc1C(=O)NCC1(N2CCCCC2)CCCCC1`: the inhibition is inactive: 3.72%. For the molecule `CN(C)C1CCCC1OC(=O)C(O)(c1ccccc1)c1ccccc1` (configuration not stated), the inhibition is inactive: 4.74%.

As to `CN(C)c1ccc(C(=O)NCC2(N(C)C)CCCCC2)cc1`, the inhibition was inactive: -0.768%.

As to `C=CCN1CCN(CCOC(=O)C(O)(c2ccccc2)c2ccccc2)CC1`, the inhibition was inactive: 0%. Next, `O=C(NCC1(N2CCCCC2)CCCCC1)c1cc(F)c(F)cc1Cl`: inactive: 2.19%; `COc1ccc(C(=O)NCC2(N(C)C)CCCCC2)cc1`: inactive: -2.83%; `Cc1cc(C(=O)NCC2(N3CCCCC3)CCCCC2)ccc1[N+](=O)[O-]`: inactive: 1.29%. For the molecule `O=C(NCC1(N2CCCCC2)CCCCC1)c1cccc(Br)c1`, the inhibition was inactive: -0.663%. Next, `O=C(NCC1(N2CCCCC2)CCCCC1)c1cc([N+](=O)[O-])ccc1Cl`: inactive: 2.83%.

With `CN1[C@@H]2CC[C@H]1CC(OC(=O)C(O)(c1ccccc1)c1ccccc1)C2` (some centres not stated), the inhibition is inactive: 2.38%. In the case of `CCN(CC)CC(C)C(C)OC(=O)C(O)(c1ccccc1)c1ccccc1` (configuration not stated), the inhibition was inactive: -4.21%. As to `COc1cc(SC)ccc1C(=O)NCC1(N(C)C)CCCCC1`, the inhibition was inactive: 1.3%. With `Cc1ccc(C(=O)NCC2(N3CCCCC3)CCCCC2)cc1`, the inhibition was inactive: -27.8%.
